Test results as given in patent US4801604A (priority 1987, dated 1989).
Read-outs that look alike come from different tables or passages of the source.

Key:
[1] = tested on: laboratory animals; details: standard laboratory animal tests, cited from earlier work
[2] = tested on: male albino CF-1 mice; experiment: CNS identification (preliminary) test: antagonism of HCl-induced writhing; details: Example 7 Table 2, subcutaneous, 0.15 percent HCl i.p.
[3] = tested on: CF-1 mice; experiment: Maximal transpinal electroshock anti-convulsant test (absence of tonic extensor convulsion); details: 10 mA; for Electro-Convulsive Shock Antagonism ED50: Example 7 Table 2, subcutaneous, 0.2 sec
[4] = tested on: Female CF-1 derived Upjohn mice; experiment: Tail flick analgesic test; details: Example 7 Table 2, SC
[5] = tested on: Female CF-1 derived Upjohn mice; experiment: Tail pinch analgesic test; details: Example 7 Table 2, SC
[6] = tested on: Female CF-1 derived Upjohn mice; experiment: HCl writhing analgesic test; details: Example 7 Table 2, SC

Row | Molecule | Analgesic activity of U-50,488 (in words) [1] | Analgesic activity of U-50,488 (in words) ([1]; listed as trans-(±)-3,4-dichloro-N-methyl-N-[2-(1-pyrrolidinyl)cyclohexyl]benzeneacetamide) | CNS Id HCl Writhing Protect ED50 [2] | Electro-Convulsive Shock Antagonism ED50 [3] | Analgesic Screens ED50, Tail Flick [4] | Analgesic Screens ED50, Tail Pinch [5] | Analgesic Screens ED50, HCl Writhing [6] | Electroshock ED50 (95 percent confidence range) ([3]; Example 3, subcutaneous, 0.2 sec., male CF-1 mice)
1 | CN(C(=O)Cc1ccc(Cl)c(Cl)c1)[C@@H]1CCCC[C@H]1N1CCCC1 (relative stereo) | significant analgesic properties | analgesically active compound |  |  |  |  |  | 
2 | O=C(Cc1ccc(Cl)c(Cl)c1)N[C@@H]1CCC[C@@H]1N1CCCC1 (relative stereo) |  |  | > 50 mg/kg | 50 mg/kg |  |  |  | 
3 | Cis-3,4-dichloro-N--methyl-N--[2-(1-pyrrolidinyl)-cyclopentyl]benzamide |  |  | > 50 mg/kg | 32 mg/kg | > 100 mg/kg | > 100 mg/kg | 63 mg/kg | 13 (9-17) mg./kg.
